Patent US5407823A, “Polypeptides having a dopaminergic receptor activity, nucleic acids coding for these polypeptides and use of these polypeptides for the screening of substances active on these polypeptides” (priority 1990, dated 1995)

The chains behind the UniProt entries cited, without tags or fusion partners.
UniProt P19020, whole entry: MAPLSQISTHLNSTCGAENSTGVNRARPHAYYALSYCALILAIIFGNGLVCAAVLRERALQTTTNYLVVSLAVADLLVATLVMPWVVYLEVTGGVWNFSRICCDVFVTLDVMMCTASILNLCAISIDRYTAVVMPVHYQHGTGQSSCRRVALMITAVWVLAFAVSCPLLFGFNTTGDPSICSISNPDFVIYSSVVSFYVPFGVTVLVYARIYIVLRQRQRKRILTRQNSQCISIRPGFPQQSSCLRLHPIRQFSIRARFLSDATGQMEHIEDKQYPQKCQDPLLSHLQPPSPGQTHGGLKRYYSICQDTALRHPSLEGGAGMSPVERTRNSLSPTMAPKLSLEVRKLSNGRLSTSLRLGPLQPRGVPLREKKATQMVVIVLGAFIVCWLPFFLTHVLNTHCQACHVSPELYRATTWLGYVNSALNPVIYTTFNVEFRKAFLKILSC
UniProt P61169, whole entry: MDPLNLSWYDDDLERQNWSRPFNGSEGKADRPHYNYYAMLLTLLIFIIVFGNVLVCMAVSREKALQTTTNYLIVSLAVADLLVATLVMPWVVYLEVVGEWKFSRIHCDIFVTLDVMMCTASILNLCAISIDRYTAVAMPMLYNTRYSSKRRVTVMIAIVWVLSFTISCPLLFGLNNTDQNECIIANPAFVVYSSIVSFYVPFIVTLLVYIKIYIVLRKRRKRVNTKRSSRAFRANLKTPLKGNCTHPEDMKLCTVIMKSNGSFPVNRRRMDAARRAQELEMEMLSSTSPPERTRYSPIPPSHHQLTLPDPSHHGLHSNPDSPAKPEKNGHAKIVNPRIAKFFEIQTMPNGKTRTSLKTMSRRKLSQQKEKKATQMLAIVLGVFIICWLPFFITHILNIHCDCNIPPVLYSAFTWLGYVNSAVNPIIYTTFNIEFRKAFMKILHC

Legend:
[1] = biological target: T1, D-3 receptor expressed in CHO cells (Rattus norvegicus, UniProt P19020); assay: Inhibition of 125I-iodosulpride binding to membranes of transfected CHO cells (D-3); settings: competition with 125I-iodosulpride, CHO cell membranes; mean ± standard deviation, 2-3 experiments
T1 construct: expressed in transfected cells

[2] = biological target: D-2 receptor expressed in CHO cells (Rattus norvegicus, UniProt P61169); assay: Inhibition of 125I-iodosulpride binding to membranes of transfected CHO cells (D-2); settings: read-out: Ki Value D-2 receptor

`CCN1CCCC1CNC(=O)c1cc(S(=O)(=O)CC)c(N)cc1OC` (centres unmarked) [Anisulpride] was tested, and the Ki [1] was 3.8 ± 0.3 nM.

`CN1CCc2cccc3c2[C@H]1Cc1ccc(O)c(O)c1-3` [Apomorphine] gave a Ki [2] of 24 ± 2 nM.
